We go through eleven compounds from PMC4106271 (Journal of Medicinal Chemistry, 2014).

By UniProt entry, the sequences of proteins in these tests, tags left out. Residues count along the entry.
UniProt P14867, 28-456: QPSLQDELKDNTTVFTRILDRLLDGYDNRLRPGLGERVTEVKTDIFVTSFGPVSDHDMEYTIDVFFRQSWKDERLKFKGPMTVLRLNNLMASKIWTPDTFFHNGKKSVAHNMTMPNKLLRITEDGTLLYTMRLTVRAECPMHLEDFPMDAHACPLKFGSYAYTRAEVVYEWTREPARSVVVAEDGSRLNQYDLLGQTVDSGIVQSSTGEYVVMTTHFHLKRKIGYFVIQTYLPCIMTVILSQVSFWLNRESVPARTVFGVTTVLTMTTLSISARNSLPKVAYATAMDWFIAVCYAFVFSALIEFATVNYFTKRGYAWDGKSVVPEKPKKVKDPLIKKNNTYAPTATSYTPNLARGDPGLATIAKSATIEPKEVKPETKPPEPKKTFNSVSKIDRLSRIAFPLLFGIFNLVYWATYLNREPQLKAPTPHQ
UniProt P47870, 26-512: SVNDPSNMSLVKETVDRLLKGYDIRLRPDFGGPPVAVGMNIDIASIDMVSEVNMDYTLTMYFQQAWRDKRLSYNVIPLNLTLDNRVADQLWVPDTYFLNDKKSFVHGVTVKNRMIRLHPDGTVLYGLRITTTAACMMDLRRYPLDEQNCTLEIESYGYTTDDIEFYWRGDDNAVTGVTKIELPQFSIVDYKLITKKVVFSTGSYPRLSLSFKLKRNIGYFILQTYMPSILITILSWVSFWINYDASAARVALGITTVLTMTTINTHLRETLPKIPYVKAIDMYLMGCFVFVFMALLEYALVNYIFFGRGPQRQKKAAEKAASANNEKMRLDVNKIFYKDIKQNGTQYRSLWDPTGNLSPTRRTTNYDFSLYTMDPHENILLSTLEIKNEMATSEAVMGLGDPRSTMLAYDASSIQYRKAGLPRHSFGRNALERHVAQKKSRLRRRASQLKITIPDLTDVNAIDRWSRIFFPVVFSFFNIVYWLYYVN
UniProt P28472, 26-473: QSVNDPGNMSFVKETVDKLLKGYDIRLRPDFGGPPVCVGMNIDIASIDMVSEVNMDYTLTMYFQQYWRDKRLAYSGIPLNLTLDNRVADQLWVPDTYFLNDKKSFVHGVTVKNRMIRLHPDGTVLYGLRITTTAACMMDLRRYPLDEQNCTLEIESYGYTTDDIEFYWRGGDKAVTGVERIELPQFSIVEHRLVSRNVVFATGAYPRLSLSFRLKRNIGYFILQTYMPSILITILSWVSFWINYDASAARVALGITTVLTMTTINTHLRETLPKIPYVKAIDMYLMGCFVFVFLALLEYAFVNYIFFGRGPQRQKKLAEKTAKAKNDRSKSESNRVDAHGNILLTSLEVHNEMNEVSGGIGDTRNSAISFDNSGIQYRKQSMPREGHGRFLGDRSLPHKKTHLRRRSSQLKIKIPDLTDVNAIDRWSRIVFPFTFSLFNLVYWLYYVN
UniProt P18505, 26-474: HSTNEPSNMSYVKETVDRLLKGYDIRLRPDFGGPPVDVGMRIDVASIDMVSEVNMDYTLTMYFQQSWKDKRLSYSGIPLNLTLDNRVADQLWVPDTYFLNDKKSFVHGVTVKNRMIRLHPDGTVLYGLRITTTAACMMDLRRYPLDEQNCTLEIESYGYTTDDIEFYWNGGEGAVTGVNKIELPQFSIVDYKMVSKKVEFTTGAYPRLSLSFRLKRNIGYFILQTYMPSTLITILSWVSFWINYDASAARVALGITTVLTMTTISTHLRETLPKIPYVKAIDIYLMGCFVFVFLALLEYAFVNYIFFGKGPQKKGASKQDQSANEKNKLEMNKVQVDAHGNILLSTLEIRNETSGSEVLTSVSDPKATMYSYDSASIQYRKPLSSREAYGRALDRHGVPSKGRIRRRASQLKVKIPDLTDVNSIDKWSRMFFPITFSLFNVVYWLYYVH
UniProt P47869, 29-451: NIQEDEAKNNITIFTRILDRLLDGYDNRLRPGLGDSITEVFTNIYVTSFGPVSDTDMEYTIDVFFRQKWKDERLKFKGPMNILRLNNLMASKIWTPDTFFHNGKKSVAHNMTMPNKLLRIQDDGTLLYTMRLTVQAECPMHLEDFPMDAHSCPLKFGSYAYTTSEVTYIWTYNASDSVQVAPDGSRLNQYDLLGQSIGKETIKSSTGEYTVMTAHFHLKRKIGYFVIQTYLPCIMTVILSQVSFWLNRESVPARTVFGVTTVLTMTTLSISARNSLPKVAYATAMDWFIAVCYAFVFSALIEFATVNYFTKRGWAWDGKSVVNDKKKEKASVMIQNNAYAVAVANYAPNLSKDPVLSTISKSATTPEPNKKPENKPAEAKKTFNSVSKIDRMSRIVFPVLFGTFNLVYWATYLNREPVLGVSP
UniProt P48169, 36-554: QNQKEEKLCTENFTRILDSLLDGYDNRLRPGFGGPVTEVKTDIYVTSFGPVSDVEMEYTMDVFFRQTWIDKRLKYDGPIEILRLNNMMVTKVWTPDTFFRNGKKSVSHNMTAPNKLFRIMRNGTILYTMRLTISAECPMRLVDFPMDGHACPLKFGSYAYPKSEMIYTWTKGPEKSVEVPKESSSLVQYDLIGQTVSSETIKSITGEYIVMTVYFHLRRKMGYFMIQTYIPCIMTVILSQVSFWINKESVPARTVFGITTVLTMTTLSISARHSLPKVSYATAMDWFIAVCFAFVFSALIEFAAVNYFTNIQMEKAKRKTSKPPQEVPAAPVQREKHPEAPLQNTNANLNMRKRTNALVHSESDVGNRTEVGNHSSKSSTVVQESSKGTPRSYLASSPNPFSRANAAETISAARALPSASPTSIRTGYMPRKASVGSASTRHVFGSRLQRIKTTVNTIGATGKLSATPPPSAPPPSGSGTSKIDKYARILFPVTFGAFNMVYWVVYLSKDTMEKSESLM
UniProt P31644, 32-462: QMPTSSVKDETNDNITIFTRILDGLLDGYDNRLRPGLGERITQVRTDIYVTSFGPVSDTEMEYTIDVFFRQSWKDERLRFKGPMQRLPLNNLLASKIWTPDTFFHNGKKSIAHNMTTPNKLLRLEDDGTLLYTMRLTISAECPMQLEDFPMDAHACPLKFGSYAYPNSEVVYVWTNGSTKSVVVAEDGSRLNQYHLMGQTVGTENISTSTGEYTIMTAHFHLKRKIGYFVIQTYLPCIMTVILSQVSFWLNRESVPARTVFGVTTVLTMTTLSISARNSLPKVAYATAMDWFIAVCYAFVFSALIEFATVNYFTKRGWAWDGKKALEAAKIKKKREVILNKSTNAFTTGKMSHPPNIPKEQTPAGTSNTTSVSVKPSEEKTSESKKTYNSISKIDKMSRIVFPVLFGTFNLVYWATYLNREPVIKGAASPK
UniProt P34903, 29-492: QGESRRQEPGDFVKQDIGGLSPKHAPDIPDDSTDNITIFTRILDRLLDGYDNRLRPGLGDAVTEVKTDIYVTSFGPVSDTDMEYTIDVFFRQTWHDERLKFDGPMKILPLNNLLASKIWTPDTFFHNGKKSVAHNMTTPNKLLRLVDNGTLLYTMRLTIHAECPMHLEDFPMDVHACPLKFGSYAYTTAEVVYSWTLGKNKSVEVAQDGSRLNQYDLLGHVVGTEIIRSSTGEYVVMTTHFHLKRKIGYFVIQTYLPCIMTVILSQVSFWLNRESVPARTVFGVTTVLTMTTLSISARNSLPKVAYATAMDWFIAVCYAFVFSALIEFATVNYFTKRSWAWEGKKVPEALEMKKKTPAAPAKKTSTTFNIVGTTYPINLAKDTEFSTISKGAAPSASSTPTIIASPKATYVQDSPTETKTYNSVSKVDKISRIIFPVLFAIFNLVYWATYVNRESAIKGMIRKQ

One series deals with T1, α1β2γ2S GABAA receptors (Homo sapiens, UniProt P14867+P47870).
T1 construct: expressed in transfected cells; host or cells: Xenopus laevis oocytes injected with cRNA (pCMV cDNA templates)
In words: Two-microelectrode voltage clamp, IGABA modulation, α1β2γ2S. Type of series: cell-based. As to conditions: for activation at 100 µM / modulation of IGABA (%): 100 μM compound, GABA EC3–7, Xenopus laevis oocytes; for activation at 100 µM / Emax / modulation of IGABA (%) / IGABA-max (%): mean ± SEM; for Emax / IGABA-max (%): maximal IGABA enhancement, GABA EC3–7, Xenopus oocytes; for Emax: read-out: IGABA-max (%). The protocol:
(§1) Preparation of stage V–VI oocytes from X. laevis and synthesis of capped runoff poly(A) cRNA transcripts from linearized cDNA templates (pCMV vector) was performed as previously described.[49] Female X. laevis frogs (Nasco) were anesthetized by 15 min incubation in a 0.2% MS-222 (methanesulfonate salt of 3-aminobenzoic acid ethyl ester; Sigma–Aldrich, Vienna, Austria) solution before removal of parts of the ovaries. Follicle membranes from isolated oocytes were enzymatically digested with 2 mg/mL collagenase (type 1A, Sigma–Aldrich, Vienna, Austria).
(§2) Selected oocytes were injected with 10–50 nL of DEPC-treated water (diethyl pyrocarbonate, Sigma, Vienna, Austria) containing the different GABAA cRNAs at a concentration of approximately 300–3000 pg·nL^–1·subunit^–1.
(§3) To ensure expression of the γ2S subunit in the case of α1/2/3/5β2/3γ2S receptors, cRNAs were mixed in a ratio of 1:1:10. For expression of receptors composed of α4β2γ2S and α1β1γ2S, cRNAS were mixed in a ratio of 3:1:10. The amount of cRNAs was determined by means of a NanoDrop ND-1000 (Kisker-Biotech, Steinfurt, Germany).
(§4) Oocytes were stored at +18 °C in modified ND96 solution (90 mM NaCl, 1 mM CaCl2, 1 mM KCl, 1 mM MgCl2·6H2O, and 5 mM HEPES [4-(2-hydroxyethyl)-1-piperazineethanesulfonic acid], pH 7.4, all from Sigma–Aldrich, Vienna, Austria).
Chloride currents through GABAA receptors (IGABA) were measured at room temperature (+21 ± 1 °C) by means of a two-microelectrode voltage clamp technique making use of a Turbo TEC-05X amplifier (npi electronic, Tamm, Germany). IGABA were elicited at a holding potential of –70 mV. Data acquisition was carried out by means of an Axon Digidata 1322A interface using pCLAMP v.10 (Molecular Devices, Sunnyvale, CA). The modified ND96 solution was used as bath solution. Microelectrodes were filled with 2 M KCl and had resistances between 1 and 3 MΩ.
GABA and the studied derivatives were applied by means of the ScreeningTool (npi electronic, Tamm, Germany) fast perfusion system as described previously.[50] To elicit IGABA, the chamber was perfused with 120 μL of GABA- or compound-containing solution at a volume rate of 300 μL/s.[34] Care was taken to account for possible slow recovery from increasing levels of desensitization in the presence of high drug concentrations. The duration of washout periods was therefore extended from 1.5 min (<10 μM compounds) to 30 min (≥10 μM compounds). Oocytes with maximal current amplitudes >3 μA were discarded to exclude voltage clamp errors.
Stimulation of chloride currents by modulators of the GABAA receptor was measured at a GABA concentration eliciting between 3% and 7% of the maximal current amplitude (EC3–7). The GABA EC3–7 was determined for each oocyte individually. Enhancement of the chloride current was defined as (IGABA+compd/IGABA) – 1, where IGABA+compd is the current response in the presence of a given compound and IGABA is the control GABA current. IGABA-max reflects the maximal IGABA enhancement. Concentration–response curves were generated and the data were fitted by nonlinear regression analysis using Origin Software (OriginLab Corp.). Data were fitted to the equation 1/(1 + (EC50/[compound])^nH), where nH is the Hill coefficient. Each data point represents the mean ± SEM from at least three oocytes and ≥2 oocyte batches. Statistical significance was calculated by paired Student t-test with a confidence interval of <0.05.

Another series deals with T2, α1β3γ2S GABAA receptors (Homo sapiens, UniProt P14867+P28472).
T2 construct: expressed in transfected cells; host or cells: Xenopus laevis oocytes injected with cRNA (pCMV cDNA templates)
In words: Two-microelectrode voltage clamp, IGABA modulation, α1β3γ2S. Type of series: cell-based. As to conditions: for IGABA,max (%): α1β3γ2S, Xenopus oocytes. The protocol:
as §1, §2, §3, §4
Chloride currents through GABAA receptors (IGABA) were measured at room temperature (+21 ± 1 °C) by means of a two-microelectrode voltage clamp technique making use of a Turbo TEC-05X amplifier (npi electronic, Tamm, Germany). IGABA were elicited at a holding potential of –70 mV. Data acquisition was carried out by means of an Axon Digidata 1322A interface using pCLAMP v.10 (Molecular Devices, Sunnyvale, CA). […]
(§5) Stimulation of chloride currents by modulators of the GABAA receptor was measured at a GABA concentration eliciting between 3% and 7% of the maximal current amplitude (EC3–7). The GABA EC3–7 was determined for each oocyte individually. […] Statistical significance was calculated by paired Student t-test with a confidence interval of <0.05.

The next series concerns the target T3, α1β1γ2S GABAA receptors (Homo sapiens, UniProt P14867+P18505).
T3 construct: expressed in transfected cells; host or cells: Xenopus laevis oocytes injected with cRNA (pCMV cDNA templates)
Briefly: Two-microelectrode voltage clamp, IGABA modulation, α1β1γ2S. Type of series: cell-based. Conditions: Xenopus oocytes. The protocol: (§6) Preparation of stage V–VI oocytes from X. laevis and synthesis of capped runoff poly(A) cRNA transcripts from linearized cDNA templates (pCMV vector) was performed as previously described.[49] Female X. laevis frogs (Nasco) were anesthetized by 15 min incubation in a 0.2% MS-222 (methanesulfonate salt of 3-aminobenzoic acid ethyl ester; Sigma–Aldrich, Vienna, Austria) solution before removal of parts of the ovaries. Follicle membranes from isolated oocytes were enzymatically digested with 2 mg/mL collagenase (type 1A, Sigma–Aldrich, Vienna, Austria). […]
(§7) To ensure expression of the γ2S subunit in the case of α1/2/3/5β2/3γ2S receptors, cRNAs were mixed in a ratio of 1:1:10. […] The amount of cRNAs was determined by means of a NanoDrop ND-1000 (Kisker-Biotech, Steinfurt, Germany). […]
(§8) Chloride currents through GABAA receptors (IGABA) were measured at room temperature (+21 ± 1 °C) by means of a two-microelectrode voltage clamp technique making use of a Turbo TEC-05X amplifier (npi electronic, Tamm, Germany). […]
as §5

In the next series the target is T4, α2β2γ2S GABAA receptors (Homo sapiens, UniProt P47869+P47870).
T4 construct: expressed in transfected cells; host or cells: Xenopus laevis oocytes injected with cRNA (pCMV cDNA templates)
Briefly: Two-microelectrode voltage clamp, IGABA modulation, α2β2γ2S. Type of series: cell-based. Conditions: Xenopus oocytes. The protocol:
as §6, §7, §8, §5

The next series deals with T5, α4β2γ2S GABAA receptors (Homo sapiens, UniProt P47870+P48169).
T5 construct: expressed in transfected cells; host or cells: Xenopus laevis oocytes injected with cRNA (pCMV cDNA templates)
Briefly: Two-microelectrode voltage clamp, IGABA modulation, α4β2γ2S. Conditions: Xenopus oocytes. Type of series: cell-based. The protocol: as §6, §7, §8, §5

Series [1] can be described thus: Estimation of plasma levels after ip application (UHPLC-MS/MS). Conditions: mouse plasma. Type of series: in vivo, mice. The protocol: Trunk blood from male C57BL/6N (6 months) was taken 15, 30, and 60 min after ip application of 23 and 25 (doses 1, 3, and 10 mg/kg body weight; injection solutions were prepared as described for behavioral analysis). At each time point, mice were euthanized and blood samples (500–800 μL) were collected and compiled into ethylenediaminetetraacetic acid (EDTA)-coated microtubes (1.6 mg of EDTA/sample) and centrifuged at 12 000 rpm for 5 min at 4 °C. Plasma samples were transferred into 1.5 mL tubes and stored at −80 °C until analysis.
Two separate sets of 23 and 25 stock solutions were prepared in DMSO for making calibrators and quality control (QC) samples. Plasma calibrators were prepared by spiking corresponding stock solutions into a blank plasma sample. The following 23 and 25 concentrations were added: 20, 50, 100, 250, 500, 1000, and 2000 ng/mL. The same blank plasma and both stock solutions (for QC) were used to generate three level plasma QC samples at 60, 1000, and 1600 ng/mL for both 23 and 25.
Plasma proteins were precipitated by the addition of 50 μL of WS at 200 ng/mL of the corresponding IS: 22 (for 23) or 24 (for 25) and 500 μL of ice-cold acetonitrile to 20 μL of K3EDTA mouse plasma. Samples were vortexed at 1400 rpm for 10 min and then centrifuged at 13200g for 20 min at 10 °C. […]
Quantification was performed on a 1290 Infinity LC system coupled with a 6460 triple quadrupole mass spectrometer with Jet Stream Technology, and data was processed with a MassHunter Workstation Software version B.06.00 (Agilent; Waldbronn, Germany). […]
MS parameters were manually optimized as follow: drying N2 gas of 320 °C at a flow rate of 10 L/min, nebulizer pressure of 20 psi, sheath N2 gas of 400 °C at a flow rate of 11 L/min, nozzle voltage of 0 V, capillary voltage of 2.5 kV, and delta EMV 0 V. Quantification was determined in multiple reaction monitoring (MRM) mode with an ESI-MS/MS system in positive ionization mode. […]

Another series has as its target T6, α5β2γ2S GABAA receptors (Homo sapiens, UniProt P31644+P47870).
T6 construct: expressed in transfected cells; host or cells: Xenopus laevis oocytes injected with cRNA (pCMV cDNA templates)
Briefly: Two-microelectrode voltage clamp, IGABA modulation, α5β2γ2S. Type of series: cell-based. Conditions: Xenopus oocytes. The protocol: as §6, §7, §8, §5

The next series addresses T7, α3β2γ2S GABAA receptors (Homo sapiens, UniProt P34903+P47870).
T7 construct: expressed in transfected cells; host or cells: Xenopus laevis oocytes injected with cRNA (pCMV cDNA templates)
Briefly: Two-microelectrode voltage clamp, IGABA modulation, α3β2γ2S. Type of series: cell-based. As to conditions: Xenopus oocytes. The protocol: as §6, §7, §8, §5

Where “and” joins values, the source holds several entries; their conditions need not be identical. Equal entries are not always repeated.

`O=C(/C=C/c1cccc2cc3c(cc12)OCO3)N1CCCCC1` [Compound 65] yielded an activation at 100 µM at α1β2γ2S GABAA receptors of 105 ± 18%.
Still for that read-out and setting: next, `CCN(CC)C(=O)/C=C/C=C/c1ccc2c(c1)OCO2` [Compound 21]: 258 ± 28%.
Consider `CCCCN(CCCC)C(=O)c1ccccc1-c1ccc2c(c1)OCO2` [Compound 56], for which, at α1β2γ2S GABAA receptors, the activation at 100 µM came out at 114 ± 11% and the Emax is 165 ± 4%.
As to `O=C(/C=C/C=C/c1ccc2c(c1)OCO2)N1CCCCCC1` [Compound 28], on α1β2γ2S GABAA receptors, the activation at 100 µM worked out at 294% and the “modulation of IGABA (%)” value worked out at 294 ± 66 %.
As for `CCCN(CCC)C(=O)c1ccc2cc3c(cc2c1)OCO3` [Compound 76], the activation at 100 µM on α1β2γ2S GABAA receptors is 122 ± 26%.
Still for that read-out and setting: next, `CC1CCCN(C(=O)/C=C/C=C/c2ccc3c(c2)OCO3)C1` (centres unmarked) [Compound 34]: 439 ± 31%.
With `O=C(c1cccc(-c2ccc3c(c2)OCO3)c1)N1CCCCC1` [Compound 50], at α1β2γ2S GABAA receptors, the activation at 100 µM stood at 178% and the “modulation of IGABA (%)” value amounted to 178 ± 32 %.
With `O=C(/C=C/C=C/c1ccc2c(c1)OCO2)N(CC(F)(F)F)CC(F)(F)F` [Compound 43], at α1β2γ2S GABAA receptors, the activation at 100 µM turned out to be 445 ± 74% and the Emax is 505 ± 24%.
With `CCCCN(CCCC)C(=O)/C=C/C=C/c1ccc2c(c1)OCO2` [Compound 25, (2E,4E)-5-(1,3-Benzodioxol-5-yl)-N,N-dibutyl-2,4-pentadienamide], the “stronger IGABA enhancement compared to α1β1γ2S receptors” value at α1β3γ2S GABAA receptors (α1β3γ2S vs α1β1γ2S) was determined as 3.9 fold; at α1β2γ2S GABAA receptors (α1β2γ2S vs α1β1γ2S) it was 5 fold. The “IGABA,max (%)” value on α1β3γ2S GABAA receptors turned out to be 587 ± 8 %; at α1β1γ2S GABAA receptors, 152 ± 30 %; on α2β2γ2S GABAA receptors, 512 ± 26 %; on α4β2γ2S GABAA receptors it was 419 ± 73 %; on α5β2γ2S GABAA receptors it was 387 ± 20 %; on α3β2γ2S GABAA receptors it was 617 ± 42 %. In addition, the activation at 100 µM on α1β2γ2S GABAA receptors was 506 ± 74%. Besides, the “IGABA-max (%)” value on α1β2γ2S GABAA receptors came out at 760 ± 47 %. In addition, on α1β2γ2S GABAA receptors, the Emax stood at 760%. In addition, the “mean plasma concn” value was 41.5 ± 8.7 ng/mL in series [1] (1 mg/kg body weight ip), 172.0 ± 19.0 ng/mL in series [1] (3 mg/kg body weight ip) and 419.0 ± 37.2 ng/mL in series [1] (10 mg/kg body weight ip).
Regarding `CCCN(CCC)C(=O)/C=C/C=C/c1ccc2c(c1)OCO2` [Compound 23, (2E,4E)-5-(1,3-benzodioxol-5-yl)-N,N-dipropyl-2,4-pentadienamide], the “IGABA,max (%)” value was 1240 ± 128% on α1β3γ2S GABAA receptors; 1157% ± 69% and 1157 ± 69 % at α1β1γ2S GABAA receptors; 980% ± 129% and 980 ± 129 % on α2β2γ2S GABAA receptors; 1316% ± 55% and 1316 ± 55 % on α4β2γ2S GABAA receptors; 1624% ± 156% and 1624 ± 156% at α5β2γ2S GABAA receptors; 1284.6% ± 142% and 1285 ± 142% at α3β2γ2S GABAA receptors.
Regarding `CC1CCN(C(=O)/C=C/C=C/c2ccc3c(c2)OCO3)CC1` [Compound 35], at α1β2γ2S GABAA receptors, the activation at 100 µM worked out at 568 ± 54%, the “IGABA-max (%)” value worked out at 733 ± 60 % and the Emax amounted to 733%.
